# Assay results: PubChem BioAssay AID2533 (National Center for Advancing Translational Sciences (NCATS), 2010)
# Amino acid sequences for entries named in this document (tags omitted).
# UniProt P14618, whole entry, looked up: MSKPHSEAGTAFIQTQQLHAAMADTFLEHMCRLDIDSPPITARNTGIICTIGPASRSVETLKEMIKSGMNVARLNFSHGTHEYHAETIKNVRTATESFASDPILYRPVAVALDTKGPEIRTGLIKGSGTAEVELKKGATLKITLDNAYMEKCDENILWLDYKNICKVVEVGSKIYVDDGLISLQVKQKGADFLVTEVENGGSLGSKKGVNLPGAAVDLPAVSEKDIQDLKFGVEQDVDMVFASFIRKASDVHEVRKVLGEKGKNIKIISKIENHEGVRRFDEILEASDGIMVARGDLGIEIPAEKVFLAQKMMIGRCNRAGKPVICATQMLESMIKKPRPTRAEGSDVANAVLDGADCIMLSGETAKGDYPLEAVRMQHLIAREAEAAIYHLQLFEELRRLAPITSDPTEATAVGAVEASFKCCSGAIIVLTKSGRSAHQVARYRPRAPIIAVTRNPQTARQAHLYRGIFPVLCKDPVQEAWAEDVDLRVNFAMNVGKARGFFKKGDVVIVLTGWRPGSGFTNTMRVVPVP
# Only a part is listed here, and it is no random draw. Inconclusive results are not listed. The source made the active and inactive calls. Calls come from the whole dose curve; as a rule, active = well fitted activation curve with a large enough effect; inconclusive = small, poorly fitted or top-dose-only effect; inactive = flat fitted curve, though single readings scatter.
# Target: Pyruvate kinase PKM (Homo sapiens) (UniProt P14618)
# Assay: Confirmation Concentration-Response Assay for Activators of Human Muscle isoform 2 Pyruvate Kinase: for Probe SAR; note: nearly all actives have a fitted effect of over 60% in size
# Conditions: purified PKM2, ATP generation, Kinase-Glo luminescence
# Text: NIH Chemical Genomics Center [NCGC]
# Matthew G. Vander Heiden, M.D., Ph.D. [Harvard Medical School, 77 Avenue Louis Pasteur, Boston, MA 02115]
# Human pyruvate kinase muscle 2 (hPK-M2) enzyme was supplied as a highly purified (>95% pure) preparation from Harvard Medical School and assayed for its ability to generate ATP from ADP using phosphoenolpyruvate (PEP) as a substrate. ATP generation was detected in a coupled reaction by luciferase-mediated luminescence, an ATP-dependent process. Pyruvate kinase substrates, PEP and ADP, were present in the assay at Km and approximately 10-fold below Km respectively. The enzyme was assayed at an intermediate level of activity to screen for both inhibitors and activators.
# NCGC Assay Protocol Summary:
# Three uL of substrate mix (at r.t.) in assay buffer (50 mM Imidazole pH7.2, 50 mM KCl, 7 mM MgCl2, 0.01% Tween 20, 0.05% BSA) was dispensed into white solid bottom 1,536 well microtiter plates so that the final concentrations of substrates in the assay were 0.1 mM ADP and 0.5 mM PEP. 23 nL of compound were delivered by a pin tool and 1 uL of enzyme mix (final concentration of 0.1 nM) in assay buffer (4 degree Celsius) was added. Plates were incubated at room temperature for 1 hour. Two uL of detection mix (Kinase-Glo, Promega; at 4 degree Celsius protected from light) was added and luminescence read by a ViewLux (Perkin Elmer) at 1 second exposure/plate. […]
# Potency is the fitted concentration of half-maximal effect.
row,Compound,Potency
1,Nc1cccc(S(=O)(=O)N2CCCN(S(=O)(=O)c3ccc4c(c3)OCCO4)CC2)c1,active: 130 nM
